Experimental findings from article PMC10979003, “Development and crystal structures of a potent second-generation dual degrader of BCL-2 and BCL-xL” (Nature Communications, 2024) are described below.

Protein sequences, listed by entry. Tags and fused reporters are not part of them. Residues count along the entry.
UniProt P10415, 1-207 F124L/G128R/E136A: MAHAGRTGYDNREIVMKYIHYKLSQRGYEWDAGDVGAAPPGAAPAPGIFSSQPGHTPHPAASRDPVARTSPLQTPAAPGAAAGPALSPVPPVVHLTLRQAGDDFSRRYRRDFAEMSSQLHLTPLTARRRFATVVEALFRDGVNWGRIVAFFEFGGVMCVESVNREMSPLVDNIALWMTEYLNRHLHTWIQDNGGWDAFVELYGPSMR

This test has as its target T1, BCL-2 E136A/G128R/F124L (Homo sapiens, UniProt P10415, E136A/F124L/G128R).
T1 construct: BCL-xL (aa 2-212) and BCL-2 (aa 1-207) transformed cells were grown in LB broth; made in house; host or cells: E. coli BL21 (DE3) codon plus
As to the kind of experiment: AlphaScreen binary binding, BCL-2 E136A/G128R/F124L. The note with it: mean ± s.d., n=3. Here is the method:
To test the binary/ternary binding affinities of compounds to BCL-2/BCL-xL, AlphaScreen displacement binding assay was performed to test the capabilities of testing compounds to displace a Biotin-tagged Bim (Biotin-[…]) or Bad (Biotin-[…]) from BCL-2 or BCL-xL for BCL-2 and BCL-xL binding affinities, respectively. All reagents were diluted in assay buffer of 25 mM HEPES, pH 7.5, 150 mM NaCl, 0.1% BSA, and 0.005% tween 20 prior incubation. To a 96-well PCR plate (VWR, Cat. No. 82006-636) was added 10 μL Biotin-tagged Bim (15 nM for WT or 50 nM for mutants) or Bad (15 nM for WT or 50 nM for mutants), 10 μL series diluted compounds solution (2 or 3 or 4× dilution), and 10 μL self-made 6×His tagged BCL-2 WT or mutants (25 nM WT or 50 nM mutants) or 10 μL self-made BCL-xL WT and mutants (10 nM WT or 50 nM mutants). […] The luminescence signal was detected on a Biotek’s Synergy Neo2 multimode plate reader installed with an AphaScreen filter cube. The Ki values of each compounds were calculated by fitting data into the “Binding-competitive, One site-Fit Ki” function in GraphPad Prism (9.2.0) based on concentrations of Biotin–peptide used and experimentally determined Kd values of each 6×His protein &&&and Biotin–Peptide pair.
(In general: In Alpha technology, singlet oxygen from a donor bead excites a nearby acceptor bead.)

Turning to `Cc1ncsc1-c1ccc(C(C)NC(=O)C2CC(O)CN2C(=O)C(NC(=O)CCCCCCC(=O)N2CCN(CC3(C)CCC(c4ccc(Cl)cc4)=C(CN4CCN(c5ccc(C(=O)NS(=O)(=O)c6ccc(NC(CCN7CCOCC7)CSc7ccccc7)c(S(=O)(=O)C(F)(F)F)c6)cc5)CC4)C3)CC2)C(C)(C)C)cc1` (stereo not shown) [753b], the Ki (commonly the dissociation constant of the complex between target and ligand, obtained from inhibition or displacement) came to 35.6 ± 6.9 nM.
